What all share (experiment): Co-culture with vancomycin and Sytox Green, intrinsic fluorescence and membrane integrity of pellet
Common to all, as to type: cell-based

One experiment has as its system E. faecium 14054 (VSE). The protocol: (§1) For each test strain, a 1 μL loopful of colonies from a 24-48 hour plate was suspended in 10-12 mL of BacT/ALERT SA media and cultured for 4-9 hours at 37° C. Samples of each log phase culture were then incubated with 0, 0.25, 2.5 and 12.5 μg/mL of vancomycin-HCl in combination with 1:5000 dilution of stock Sytox Green, a viable cell impermeant DNA stain (Molecular Probes, cat #S7020), for a period of 4 hours at 37° C. Aliquots of the cultures were removed for analysis immediately (T0) and after 1, 2.5 and 4 hours.
(§2) At the appropriate time-point, 0.5 mL aliquots of the cultures (0.5 mL) were overlaid on a density cushion composed of 24% w/v CsCl in 10 mM Hepes, pH 7.4 and 0.005% Pluronic F-108 contained in custom-made optical centrifugation tubes as disclosed in related U.S. patent application, Ser. No. 12/589,969, entitled “Separation Device for Use in the Separation, Characterization and/or Identification of Microorganisms”, filed Oct. 30, 2009. The tubes were sealed and centrifuged at 10,000 rpm for 2 minutes to separate intact microorganisms from the culture medium and unbound chemicals. The tubes were then placed into a custom-built tube holder directly onto a fiber optic probe built into the base. The probe was attached to a FluoroLog 3 spectrofluorimeter. The tube was interrogated through its UV-transparent base, and fluorescence and diffuse reflectance readings collected.

The test system of another experiment is E. faecium 12406 (VRE). The note with it: Vanc. 2.5 μg/mL, 1 hour. On the procedure:
as §1, §2

A further experiment concerns E. faecium 13185 (VRE). The conditions noted are these: Vanc. 12.5 μg/mL, 1 hour. On the procedure:
as §1, §2

As for `CN[C@H](CC(C)C)C(=O)N[C@H]1C(=O)N[C@@H](CC(N)=O)C(=O)N[C@H]2C(=O)N[C@H]3C(=O)N[C@H](C(=O)N[C@H](C(=O)O)c4cc(O)cc(O)c4-c4cc3ccc4O)[C@H](O)c3ccc(c(Cl)c3)Oc3cc2cc(c3O[C@@H]2O[C@H](CO)[C@@H](O)[C@H](O)[C@H]2O[C@H]2C[C@](C)(N)[C@H](O)[C@H](C)O2)Oc2ccc(cc2Cl)[C@H]1O` [vancomycin], the “Microbial NADH fluorescence (Ex340 nm/Em440 nm)” value is 349,287 in the experiment with E. faecium 14054 (VSE) (Vanc. 2.5 μg/mL, 2.5 hour); 248,332 with E. faecium 14054 (VSE) (Vanc. 12.5 μg/mL, Zero time); 253,323 in the experiment with E. faecium 12406 (VRE); 226,769 with E. faecium 13185 (VRE).

The values are drawn from patent publication US10988792B2, “Methods for antimicrobial resistance determination” (bioMerieux, Inc., priority 2009, dated 2021).
